The structures appear in SMILES notation.

Protein sequences, listed by entry. Tags and fused reporters are not part of them.
UniProt Q07820, whole entry: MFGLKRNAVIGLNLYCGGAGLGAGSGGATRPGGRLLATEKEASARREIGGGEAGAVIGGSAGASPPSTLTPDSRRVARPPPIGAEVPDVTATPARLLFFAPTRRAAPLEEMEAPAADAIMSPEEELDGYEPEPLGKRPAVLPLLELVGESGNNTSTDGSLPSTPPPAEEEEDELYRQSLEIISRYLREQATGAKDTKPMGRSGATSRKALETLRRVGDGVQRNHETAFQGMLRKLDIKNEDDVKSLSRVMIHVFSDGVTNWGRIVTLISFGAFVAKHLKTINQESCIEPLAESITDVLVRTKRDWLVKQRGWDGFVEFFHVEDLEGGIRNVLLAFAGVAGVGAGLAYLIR

One data set addresses MCL1 protein (Homo sapiens (Human), UniProt Q07820). Kind of data set: PIxEL: protein-protein interaction in permeabilized cells by ELISA (Assay 5). To be noted: read-out: PIXEL [M] (median) IC50, permeabilized RKO cells, Biotin-BIM peptide 0.2 μM, serum free. On the procedure:
PI×EL: Protein-Protein Interaction in Permeabilized Cells by ELISA
Most MCL1 protein molecules are localized at the mitochondria outer membrane and sequester pro-apoptotic proteins through binding of their BCL2 homology domain 3 (BH3 domain). MEB buffer (150 mM mannitol, 10 mM HEPES pH 7.5, 50 mM KCl, 20 μM EDTA, 20 μM EGTA, 5 mM potassium succinate, 0.1% protease-free BSA (SIGMA) with low dose digitonin (0.002%) permeabilizes plasma membrane while leaves live mitochondria, where MCL1 maintains its native localization and conformation. Unlike biophysical assays (e.g. TR-FRET) that use truncated recombinant MCL1 protein, this assay uses full length endogenous MCL1 protein at mitochondria outer membrane. It measures the interaction between MCL1 protein and biotinylated BIM BH3 peptide. Compounds can compete with BIM BH3 peptide to bind to MCL1 protein. This serum free assay measures the affinity between MCL1 protein and compound in permeabilized cells, therefore it is not affected by serum binding and cell permeability, and can measure the intrinsic compound affinity. […]
On the third day, ELISA plates were washed once with 250 μl 1×PBST. […] Plates were shaken for 1 minute then luminescence was measured by Envision plate reader (HP). […] IC50 was calculated using Graphic Pad PRISM software.
For orientation: In an ELISA, binding on a coated surface is turned into a signal by an enzyme label.

The test system of the next data set is SUDHL5. Kind of data set: Antiproliferation assay (Assay 7), SUDHL5. The following applies: read-out: Antiproli SUDHL5 [M] (median) IC50, CellTiter-Glo, 72 hours. The method, then:
Assessment of the Anti-Proliferative Effect of Compounds in Different Cell Lines
The impact of compounds on the proliferation of different cell lines was assessed using the CellTiter-Glo® Luminescent Cell Viability reagent from Promega (G7573).
The different cell lines were plated in culture medium (RPMI 1640 [Biochrom; #FG 1215] supplemented with 10% Fetal Calf Serum [Biochrom; #S 0415]) at a density of 3,300 cells (for suspension cells) or 800 cells (for adherent cells) in 30 μl/well in a sterile, solid black, flat bottom, polystyrene, TC-treated 384-well microplate (Corning #3571) using Multidrop Combi Reagent Dispenser. In parallel, cells were plated in a reference (day 0) plate for time zero determination. […]
On the next day, cells were treated with compounds (stock solution, 10 mM in DMSO) using the HP D300 Digital Dispenser in a concentration range of 3.3×10e-5 M (33 μM) to 5×10e-9 M (5 nM) in a single-dot curve with at least 16 dilutions and a DMSO concentration of 0.33%. […] The day 0 plate was measured by adding 30 μL/well of CTG solution (CellTiter-Glo® Luminescent Cell Viability reagent, Promega G7573) to time zero wells in the reference plate followed by a 10 minutes incubation and luminescence reading at 0.1 ms. using the PHERAstar FS microplate reader (BMG Labtech).
After 72 hours incubation, the treated plates were measured in the same way as the day 0 plate mentioned above. […]

In general, IC50 refers to the concentration that gives 50% inhibition. In the case of `CCc1c2c(nn1C)CNS(=O)(=O)CCCn1c(C(=O)O)c(CCCOc3cccc4cc(F)ccc34)c3ccc(Cl)c-2c31`, the 50% inhibitory concentration (IC50) on MCL1 protein was 7.65e-07 M; with SUDHL5 it was 6.9e-06 M; with SUDHL10, 2.9 µM.

These data come from patent publication US11401278B2, “Macrocyclic indole derivatives” (The Broad Institute, Inc., priority 2017, dated 2022).
